Test: X-ray powder diffraction (XRPD) of salt screen and scale-up products
Format: physicochemical
Settings: salt screen

In the case of Nicotinate, the “XRPD Pattern” value (E, MeOH) is reported as “API A + acid”, the “XRPD Pattern” value (Grind, ACN) is reported as “API A + acid” and the “XRPD Pattern” value (SL, ACN, 50° C.) is reported as “Acid”.
In the case of Succinate, the “XRPD Pattern” value (E, MeOH, oil, ACN) is reported as “API A + NC” and the “XRPD Pattern” value (Grind, ACN) is reported as “API A + acid”.

Reference: patent US20260092037A1, “CRYSTALLINE SALT FORMS OF N-((1-(2-(TERT-BUTYLAMINO)-2-OXOETHYL)PIPERIDIN-4-YL) METHYL)-3-CHLORO-5-FLUOROBENZAMIDE AND METHODS OF USE THEREOF” (priority 2023, published 2026)
